Reference: PubChem BioAssay (EPA / NIEHS)
The list shows a part of the results, in another mix than the full data. Records with an inconclusive call do not appear. The source made the active and inactive calls. The calls were made as follows: active = hit-call score of the fitted dose curve at least 0.9, where 1 is the maximum; inconclusive = response in the unintended direction; inactive = score below 0.9.

Columns and labels:
[1] = Tanguay_ZF_120hpf_PE_legacy: (Legacy) Oregon State University Tanguay Lab 120 Hour Post-fertilization zebrafish Assay for Pericardial Edema (AID 2283640)
Method in brief: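 Zebrafish larvae are exposed from early development to 120 hpf at 28C, with 0.64% DMSO final. Each surviving larva receives a yes/no pericardial edema call by brightfield imaging, analysed relative to the DMSO baseline.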

[2] = Tanguay_ZF_120hpf_BRAI_legacy: (Legacy) Oregon State University Tanguay Lab 120 Hour Post-fertilization zebrafish Assay for Brain Malformation (AID 2283641)
Method in brief: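 Static exposure of staged wild-type embryos until 120 hpf, kept at 28C with light excluded and final DMSO of 0.64% (vol/vol). Presence or absence of brain malformation was noted under brightfield; mortality precluded scoring.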

[3] = Tanguay_ZF_120hpf_SOMI_legacy: (Legacy) Oregon State University Tanguay Lab 120 Hour Post-fertilization zebrafish Assay for Somite Malformation (AID 2283647)
Method in brief: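 Somitogenesis defects are recorded as binary calls in whole larvae at 120 hpf after continuous static chemical exposure starting at 6 hpf in dechorionated 5D embryos. DMSO serves as negative control and baseline.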

[4] = Tanguay_ZF_120hpf_PFIN_legacy: (Legacy) Oregon State University Tanguay Lab 120 Hour Post-fertilization zebrafish Assay for Pectoral Fin Malformation (AID 2283648);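 also: each larva judged yes or no for fin defect by brightfield with dead larvae skipped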
Method in brief: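 Dechorionated Tropical 5D wild-type zebrafish embryos, one per well, statically exposed from 6 to 120 hpf at 28C with 0.64% DMSO final. Pectoral fin malformation scored present/absent by brightfield at 120 hpf; not scored in dead embryos.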

[5] = Tanguay_ZF_120hpf_CFIN_legacy: (Legacy) Oregon State University Tanguay Lab 120 Hour Post-fertilization zebrafish Assay for Caudal Fin Malformation (AID 2283649)
Procedure: (§1) Tanguay_ZF_120hpf_legacy is a whole embryo, multiplexed endpoint assay using zebrafish larvae exposed for 120 hours post fertilization on a 96-well plate.Tanguay_ZF_120hpf_CFIN_legacy is one of one assay component(s) measured or calculated from the Tanguay_ZF_120hpf_legacy assay. It is designed to make measurements of zebrafish development as detected with brightfield microscopy of developing zebrafish embryos.Data from the assay component Tanguay_ZF_120hpf_CFIN_legacy was analyzed into 1 assay endpoints. This assay endpoint, Tanguay_ZF_120hpf_CFIN_legacy, was analyzed in the positive analysis fitting direction relative to DMSO as the negative control and baseline of activity. Using a type of morphology reporter, gain-of-signal activity can be used to understand changes in developmentals as they relate to the whole embryo. To generalize the intended target to other relatable targets, this assay endpoint is annotated to the zebrafish development intended target family, where the subfamily is caudal fin morphogenesis.
(§2) Zebrafish husbandry: Tropical 5D wild-type adult zebrafish were housed in at an approximate density of 1000 per 100 gallon tank at the Sinnhuber Aquatic Research Laboratory, Oregon State University, Corvallis, OR. Each tank was kept at standard laboratory conditions of 28C on a 14-h light/10-h dark photoperiod in fish water consisting of reverse osmosis water supplemented with a commercially available salt (Instant Ocean). Spawning funnels were placed into the tanks the night prior, and embryos were collected and staged. To increase bioavailability, the chorion was enzymatically removed using pronase (63.6mg/ml, >/= 3.5U/mg, Sigma-Aldrich: P5147) at 4 hours post fertilization (hpf) using a custom automated dechorionator.Chemical exposures: Six hpf dechorionated embryos were placed 1 embryo per well in a 96-well plate prefilled with 90 ul of EM using automated embryo placement systems (AEPS). Ten microliters of each row of dilution plate 2 was added to 2 exposure plates. The final DMSO concentration used was 0.64% (vol/vol). Thirty-two embryos were also exposed to 5uM trimethyltin chloride (positive control). Plates were sealed to prevent evaporation and foil covered to reduce light exposure and kept in a 28C incubator. Embryos were statically exposed until 120 hpf. At 24 hpf, embryos were assessed for photomotor response using a custom photomotor response analysis tool (PRAT) and for developmental toxicity endpoints (MO24: mortality at 24 hpf, DP: developmental progression, SM: spontaneous movement, and NC: notochord distortion). At 120 hpf, locomotor activity was measured using Viewpoint Zebralab and assessed for 18 endpoints. Zebrafish acquisition and analysis program (ZAAP), a custom program designed to inventory, acquire, and manage zebrafish data, was used to collect developmental endpoints as either present or absent (i.e., binary responses were recorded). If mortality occurred for an embryo (at either 24 or 120 hpf), the non-mortality endpoints were not measured.

[6] = Tanguay_ZF_120hpf_PIG_legacy: (Legacy) Oregon State University Tanguay Lab 120 Hour Post-fertilization zebrafish Assay for Pigmentation Malformation (AID 2283650)
Method in brief: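 Dechorionated Tropical 5D wild-type embryos, one per well from 6 hpf, statically exposed at 28C in the dark until 120 hpf, 0.64% DMSO final. Pigmentation scored present/absent by brightfield microscopy; dead embryos not scored; fitted versus DMSO.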

[7] = Tanguay_ZF_120hpf_CIRC_legacy: (Legacy) Oregon State University Tanguay Lab 120 Hour Post-fertilization zebrafish Assay for Circulatory Malformation (AID 2283651)
Method in brief: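 Read-out: presence or absence of circulatory malformation at 120 hpf, scored by brightfield microscopy, fitted in the gain-of-signal direction against DMSO baseline. Wild-type 5D larvae were exposed from 6 hpf after enzymatic chorion removal.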

[8] = Tanguay_ZF_120hpf_SWIM_legacy: (Legacy) Oregon State University Tanguay Lab 120 Hour Post-fertilization zebrafish Assay for Swim Bladder Malformation (AID 2283654);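 also: swim bladder malformation in each larva scored yes or no under brightfield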
Method in brief: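 Dechorionated wild-type Tropical 5D zebrafish embryos, one per well from 6 hpf, were statically exposed at 28C until 120 hpf in 0.64% DMSO. Swim bladder malformation scored as present/absent by brightfield microscopy; not scored in dead larvae.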

[9] = Tanguay_ZF_120hpf_JAW_legacy: (Legacy) Oregon State University Tanguay Lab 120 Hour Post-fertilization zebrafish Assay for Jaw Malformation (AID 2283638)
Procedure: as §1, with “plate.Tanguay_ZF_120hpf_JAW_legacy” for “plate.Tanguay_ZF_120hpf_CFIN_legacy”, “Tanguay_ZF_120hpf_JAW_legacy” for “Tanguay_ZF_120hpf_CFIN_legacy”, “Tanguay_ZF_120hpf_JAW_legacy,” for “Tanguay_ZF_120hpf_CFIN_legacy,”, “embryonic jaw development.” for “caudal fin morphogenesis.”
as §2, with “Thirty-two embryos were also exposed to 5uM trimethyltin chloride (positive control). Plates were sealed to prevent evaporation and foil covered to reduce light exposure and kept in a 28C incubator. Embryos were statically exposed until 120 hpf.” left out

[10] = Tanguay_ZF_120hpf_OTIC_legacy: (Legacy) Oregon State University Tanguay Lab 120 Hour Post-fertilization zebrafish Assay for Otic Vesicle Malformation (AID 2283639)
Procedure: as §1, with “plate.Tanguay_ZF_120hpf_OTIC_legacy” for “plate.Tanguay_ZF_120hpf_CFIN_legacy”, “Tanguay_ZF_120hpf_OTIC_legacy” for “Tanguay_ZF_120hpf_CFIN_legacy”, “Tanguay_ZF_120hpf_OTIC_legacy,” for “Tanguay_ZF_120hpf_CFIN_legacy,”, “otic vesicle” for “caudal fin”
as §2, with “To increase bioavailability, the chorion was enzymatically removed using pronase (63.6mg/ml, >/= 3.5U/mg, Sigma-Aldrich: P5147) at 4 hours post fertilization (hpf) using a custom automated dechorionator.Chemical exposures: Six hpf dechorionated embryos were placed 1 embryo per well in a 96-well plate prefilled with 90 ul of EM using automated embryo placement systems (AEPS).” left out

Measured: outcome

Cc1c([N+](=O)[O-])cccc1[N+](=O)[O-]
inactive: [1] | [2] | [3] | [4] | [5] | [6] | [7] | [8]

Cc1cccc([N+](=O)[O-])c1[N+](=O)[O-]
inactive: [9] | [10] | [1] | [2] | [3] | [4] | [5] | [6] | [7] | [8]

Cc1ccc([N+](=O)[O-])cc1[N+](=O)[O-]
inactive: [9] | [10] | [1] | [2] | [3] | [4] | [5] | [6] | [7] | [8]

CC(C)OP(C)(=O)OC(C)C
inactive: [9] | [10] | [1] | [2] | [3] | [5] | [6] | [7] | [8]

O=[N+]([O-])c1cccc([N+](=O)[O-])c1
inactive: [9] | [10] | [1] | [2] | [3] | [4] | [5] | [6] | [7] | [8]
